Experimental data: ChEMBL document CHEMBL1150317, “Discovery of aryl aminoquinazoline pyridones as potent, selective, and orally efficacious inhibitors of receptor tyrosine kinase c-Kit” (J Med Chem, 2008)

Protein sequences, listed by entry. Tags and fused reporters are not part of them.
UniProt P35968, whole entry: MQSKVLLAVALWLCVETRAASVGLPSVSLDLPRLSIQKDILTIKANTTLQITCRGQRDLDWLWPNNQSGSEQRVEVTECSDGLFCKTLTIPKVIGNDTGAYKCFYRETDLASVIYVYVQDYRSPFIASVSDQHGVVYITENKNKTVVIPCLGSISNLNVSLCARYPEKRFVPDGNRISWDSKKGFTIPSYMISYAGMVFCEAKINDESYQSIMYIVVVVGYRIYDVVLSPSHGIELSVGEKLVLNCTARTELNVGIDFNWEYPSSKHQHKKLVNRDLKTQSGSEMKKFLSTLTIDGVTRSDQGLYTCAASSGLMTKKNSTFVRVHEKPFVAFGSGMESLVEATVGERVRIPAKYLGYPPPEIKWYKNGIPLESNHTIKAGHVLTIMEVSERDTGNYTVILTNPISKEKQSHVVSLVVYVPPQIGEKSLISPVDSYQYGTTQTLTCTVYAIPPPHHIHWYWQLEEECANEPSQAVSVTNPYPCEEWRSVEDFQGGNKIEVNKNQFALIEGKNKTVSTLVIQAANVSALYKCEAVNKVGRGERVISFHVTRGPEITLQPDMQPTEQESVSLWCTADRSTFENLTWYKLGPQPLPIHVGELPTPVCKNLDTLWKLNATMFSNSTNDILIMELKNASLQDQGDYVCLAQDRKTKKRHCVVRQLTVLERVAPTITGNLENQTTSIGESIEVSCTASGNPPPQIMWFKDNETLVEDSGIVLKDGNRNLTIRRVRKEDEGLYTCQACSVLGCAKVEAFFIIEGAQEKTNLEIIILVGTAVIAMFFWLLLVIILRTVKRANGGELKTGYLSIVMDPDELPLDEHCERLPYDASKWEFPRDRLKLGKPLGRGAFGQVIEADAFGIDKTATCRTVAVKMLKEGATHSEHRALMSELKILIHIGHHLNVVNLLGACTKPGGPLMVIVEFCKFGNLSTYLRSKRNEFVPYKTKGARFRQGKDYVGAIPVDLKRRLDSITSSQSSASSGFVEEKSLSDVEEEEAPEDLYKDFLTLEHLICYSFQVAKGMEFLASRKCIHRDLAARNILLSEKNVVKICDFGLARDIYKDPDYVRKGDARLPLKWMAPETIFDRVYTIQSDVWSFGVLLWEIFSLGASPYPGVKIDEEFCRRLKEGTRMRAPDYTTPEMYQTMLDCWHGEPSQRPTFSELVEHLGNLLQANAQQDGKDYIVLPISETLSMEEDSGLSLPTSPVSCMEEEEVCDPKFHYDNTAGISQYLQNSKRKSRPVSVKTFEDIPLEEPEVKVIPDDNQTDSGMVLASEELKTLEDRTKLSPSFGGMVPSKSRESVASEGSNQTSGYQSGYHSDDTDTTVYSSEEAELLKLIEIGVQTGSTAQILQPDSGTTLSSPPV

Molecular target: Vascular endothelial growth factor receptor 2 (Homo sapiens, UniProt P35968)

In the case of `Cc1ccn(-c2ccc3c(c2)NCC3(C)C)c(=O)c1-c1ccc2nc(N)ncc2c1`, the IC50 is reported as 48 nM.
